scFv variants of Ab-14 (light chain) against a SARS-CoV-2 spike peptide

Values reported by Li et al. 2023, doi:10.1038/s41467-023-39022-2 (FLAb copy).

All variants were tested on one target, the spike HR2 peptide PDVDLGDISGINAS (SARS-CoV-2).

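The parent was found by panning a naive human phage display library on the peptide. This is the validation round: designs drawn from the data on random variants, tested in the same kind of assay. Their group label is 14L_En_HC (En: ensemble of fine-tuned language models; HC: hill climbing; a sequence that several methods proposed may carry one label only). The scFvs were displayed on barcoded MATa yeast, the peptide on MATalpha yeast. The frequency of each diploid, read from paired DNA barcodes, reflects how well the two displayed proteins bind. Scores were corrected for input abundance and mapped to Kd with protein pairs of known affinity run in the same pool. Each pool was mated in six replicate cultures.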

Ab-14 is the parent antibody, in scFv form: VH, then a (GGGGS)3 linker, then VL. The heavy chain is unchanged in all variants.
VH: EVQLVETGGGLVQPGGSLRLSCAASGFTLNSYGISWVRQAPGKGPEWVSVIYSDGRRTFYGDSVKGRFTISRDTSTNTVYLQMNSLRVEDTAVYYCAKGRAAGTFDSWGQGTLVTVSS
VL: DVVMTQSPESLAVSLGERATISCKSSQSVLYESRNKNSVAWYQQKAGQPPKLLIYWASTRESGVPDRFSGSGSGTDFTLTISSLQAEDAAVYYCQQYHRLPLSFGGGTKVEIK

Each variant is given by its three light chain CDRs, as the data file delimits them; those of the parent are KSSQSVLYESRNKNSVA, WASTRES, QQYHRLPLS. Scale: log10 of Kd in nM, estimated from mating counts; low values are strong binders. The mean shown is taken over the replicates in which the pair was detected. "ND" means that the variant was in the library but no mating with the target was seen in that replicate; the authors take this as a sign of poor binding, and no number exists.

{"CDR-L1": "KLGDMVHTLSRNKNSIA", "CDR-L2": "DMRTRES", "CDR-L3": "QQYYRLPLS", "log10 Kd (nM) by replicate": "0.46 0.53 0.30 0.51 0.77 1.32", "mean log10 Kd (nM)": "0.65", "control signals": "1 of 18 (1.73)"}
{"CDR-L1": "ALGTSTLEETRNKNSVA", "CDR-L2": "EVSERES", "CDR-L3": "QSYNRLPLS", "log10 Kd (nM) by replicate": "1.06 1.46 0.39 0.68 0.69 0.55", "mean log10 Kd (nM)": "0.81", "control signals": "0 of 18"}
{"CDR-L1": "MIGKGLMGESRAKNSIA", "CDR-L2": "QASLRED", "CDR-L3": "QQYHRLPLI", "log10 Kd (nM) by replicate": "0.37 0.41 0.10 0.21 0.27 0.27", "mean log10 Kd (nM)": "0.27", "control signals": "0 of 18"}
{"CDR-L1": "KISMMVDYMSATHSSVA", "CDR-L2": "QTSTREE", "CDR-L3": "QQYHRLPLS", "log10 Kd (nM) by replicate": "0.05 0.33 0.46 -0.04 0.16 0.04", "mean log10 Kd (nM)": "0.17", "control signals": "0 of 18"}
{"CDR-L1": "KLSISYLFESQEKNSIA", "CDR-L2": "ENSTRES", "CDR-L3": "QHYHRLPLS", "log10 Kd (nM) by replicate": "ND 2.24 ND ND ND ND", "mean log10 Kd (nM)": "2.24", "control signals": "0 of 18"}
{"CDR-L1": "KLSMSYRYESEMKNSIA", "CDR-L2": "ELVTRMS", "CDR-L3": "QQYHRLPLS", "log10 Kd (nM) by replicate": "1.68 1.42 1.36 1.60 2.01 1.83", "mean log10 Kd (nM)": "1.65", "control signals": "1 of 18 (2.23)"}
{"CDR-L1": "TLTQVQGMESHAKNSVA", "CDR-L2": "DLSTRGS", "CDR-L3": "QQYHRLPLS", "log10 Kd (nM) by replicate": "0.22 0.34 0.35 -0.28 0.00 0.18", "mean log10 Kd (nM)": "0.14", "control signals": "0 of 18"}
{"CDR-L1": "KLGSSVAMTSRNKNNVA", "CDR-L2": "DLNERER", "CDR-L3": "QQYHRLPLS", "log10 Kd (nM) by replicate": "-0.31 -0.23 -0.35 -0.49 -0.22 -0.13", "mean log10 Kd (nM)": "-0.29", "control signals": "0 of 18"}
{"CDR-L1": "TLTQSVGMESHNKNNVA", "CDR-L2": "DLSTRGS", "CDR-L3": "QQYHRLPLS", "log10 Kd (nM) by replicate": "-0.26 -0.06 -0.05 -0.25 -0.24 -0.13", "mean log10 Kd (nM)": "-0.16", "control signals": "1 of 18 (1.89)"}
{"CDR-L1": "KISMLYNYASVNKNSIA", "CDR-L2": "EMTTRES", "CDR-L3": "QHYHRLPLS", "log10 Kd (nM) by replicate": "-0.12 -0.09 0.09 -0.09 -0.20 0.10", "mean log10 Kd (nM)": "-0.05", "control signals": "0 of 18"}
{"CDR-L1": "KIYHGVTGTSRKGNSVA", "CDR-L2": "QAETRVD", "CDR-L3": "QQYHRLPLM", "log10 Kd (nM) by replicate": "0.29 0.21 0.52 0.30 0.48 0.79", "mean log10 Kd (nM)": "0.43", "control signals": "0 of 18"}
{"CDR-L1": "MISDLMLHGSRNKNPIA", "CDR-L2": "NASTREY", "CDR-L3": "QQYHRLPLE", "log10 Kd (nM) by replicate": "0.60 0.61 0.59 0.45 0.69 0.71", "mean log10 Kd (nM)": "0.61", "control signals": "3 of 18 (3.96)"}
{"CDR-L1": "ALSQAMDMTSRNVNSVA", "CDR-L2": "DLTTREN", "CDR-L3": "QQYHRLPLS", "log10 Kd (nM) by replicate": "0.94 0.67 0.68 0.67 0.60 0.56", "mean log10 Kd (nM)": "0.69", "control signals": "2 of 18 (2.57)"}
{"CDR-L1": "TISQSTYWESYNKNSVA", "CDR-L2": "QTSTREE", "CDR-L3": "QDYDRLPLS", "log10 Kd (nM) by replicate": "1.46 ND 2.32 ND ND ND", "mean log10 Kd (nM)": "1.89", "control signals": "0 of 18"}
{"CDR-L1": "KISSLTLYESVNKNNIA", "CDR-L2": "EMSTRPS", "CDR-L3": "QSYHRLPLS", "log10 Kd (nM) by replicate": "0.00 0.05 0.69 0.41 0.03 0.76", "mean log10 Kd (nM)": "0.32", "control signals": "2 of 18 (2.79)"}
{"CDR-L1": "MFSQLVMTGSRTKNAVA", "CDR-L2": "QASTREN", "CDR-L3": "QQYHRLPIS", "log10 Kd (nM) by replicate": "0.64 0.39 0.65 0.16 0.14 0.47", "mean log10 Kd (nM)": "0.41", "control signals": "1 of 18 (1.07)"}
{"CDR-L1": "KLSMVTNSEHKVKNSIA", "CDR-L2": "EMVTREK", "CDR-L3": "QQYDRLPLM", "log10 Kd (nM) by replicate": "0.88 0.10 -0.42 0.00 0.25 0.68", "mean log10 Kd (nM)": "0.25", "control signals": "1 of 18 (1.75)"}
{"CDR-L1": "MISDTGLHDSRMENSVA", "CDR-L2": "NNSTRES", "CDR-L3": "QQYHRLPLS", "log10 Kd (nM) by replicate": "ND ND ND 1.64 ND ND", "mean log10 Kd (nM)": "1.64", "control signals": "0 of 18"}
{"CDR-L1": "KISMSYRYESQESNSIA", "CDR-L2": "EMSTREE", "CDR-L3": "QSYHRLPLS", "log10 Kd (nM) by replicate": "1.17 2.01 1.47 1.65 2.15 1.67", "mean log10 Kd (nM)": "1.69", "control signals": "1 of 18 (3.21)"}
{"CDR-L1": "KISMMYRYEQQNSSSIA", "CDR-L2": "EVTTRLN", "CDR-L3": "QSYHRLPLS", "log10 Kd (nM) by replicate": "2.82 1.91 1.60 1.72 1.75 2.65", "mean log10 Kd (nM)": "2.08", "control signals": "0 of 18"}
{"CDR-L1": "IFSQSVLMGNLTKNSVA", "CDR-L2": "QASQRFN", "CDR-L3": "QQYHRLPLI", "log10 Kd (nM) by replicate": "1.09 0.94 0.65 1.01 0.76 0.75", "mean log10 Kd (nM)": "0.87", "control signals": "0 of 18"}
{"CDR-L1": "KISQAVNYLTRVMNSVA", "CDR-L2": "DNSTRES", "CDR-L3": "QQYFRLPLS", "log10 Kd (nM) by replicate": "0.79 0.30 0.50 -0.17 0.36 0.40", "mean log10 Kd (nM)": "0.36", "control signals": "0 of 18"}
{"CDR-L1": "KLSIFHQVESINKSNVA", "CDR-L2": "EMVTRES", "CDR-L3": "QQYDRLPLS", "log10 Kd (nM) by replicate": "1.96 ND 2.01 1.54 ND 2.09", "mean log10 Kd (nM)": "1.90", "control signals": "0 of 18"}
{"CDR-L1": "HLSMSTDLESVHKNSIA", "CDR-L2": "DLMTRES", "CDR-L3": "QQYHRLPLS", "log10 Kd (nM) by replicate": "0.59 0.20 0.27 0.10 0.26 0.81", "mean log10 Kd (nM)": "0.37", "control signals": "2 of 18 (2.26)"}
{"CDR-L1": "TVSQVTGLLQHNTNSVA", "CDR-L2": "DMNTRGS", "CDR-L3": "QQYDRLPLS", "log10 Kd (nM) by replicate": "0.35 0.57 0.59 0.41 0.39 0.65", "mean log10 Kd (nM)": "0.49", "control signals": "1 of 18 (3.20)"}
{"CDR-L1": "HISQSVGMTSRNKNSVA", "CDR-L2": "ENSTREP", "CDR-L3": "QQYDRLPLS", "log10 Kd (nM) by replicate": "1.49 ND ND ND 0.77 ND", "mean log10 Kd (nM)": "1.13", "control signals": "1 of 18 (1.71)"}
{"CDR-L1": "HISYSMAHLSRNKNSVA", "CDR-L2": "NQQTREE", "CDR-L3": "QQYHRLPLS", "log10 Kd (nM) by replicate": "1.67 0.59 0.45 1.04 1.93 1.22", "mean log10 Kd (nM)": "1.15", "control signals": "0 of 18"}

The 4 strongest on average among those seen in every replicate, once more:

| CDR-L1 | CDR-L2 | CDR-L3 | log10 Kd (nM) by replicate | mean log10 Kd (nM) | control signals |
|---|---|---|---|---|---|
| KLGSSVAMTSRNKNNVA | DLNERER | QQYHRLPLS | -0.31 -0.23 -0.35 -0.49 -0.22 -0.13 | -0.29 | 0 of 18 |
| TLTQSVGMESHNKNNVA | DLSTRGS | QQYHRLPLS | -0.26 -0.06 -0.05 -0.25 -0.24 -0.13 | -0.16 | 1 of 18 (1.89) |
| KISMLYNYASVNKNSIA | EMTTRES | QHYHRLPLS | -0.12 -0.09 0.09 -0.09 -0.20 0.10 | -0.05 | 0 of 18 |
| TLTQVQGMESHAKNSVA | DLSTRGS | QQYHRLPLS | 0.22 0.34 0.35 -0.28 0.00 0.18 | 0.14 | 0 of 18 |

Values of this round are not directly comparable with the first-round values of the same sequences. The authors' rule: three or more of the six replicates give a measured affinity, fewer mean a poor binder. Empty control strains, which show no peptide, gave a signal in 4% of pairings with all light chain designs; the median was 2.64 and 95% of these signals were weaker than 1.59. No background was subtracted. Also given: how often the same scFv was detected with the empty control strains, with their mean in brackets. Of ten entries with the parent sequence, four were seen in most replicates (averages 0.34 to 2.37), three in one and three in none, so single entries are noisy.